In patent EP0328389A2, “Compostions for treating intracranial tumors” (MATRIX PHARMACEUTICAL INC., priority 1988, dated 1989):

System: KHT brain tumor
Test: Histopathological evaluation of KHT brain tumor response to intracerebrally implanted treatment
Type: in vivo, C3H mice
Conditions: 0.2 mg/kg i.c., surviving mice sacrificed day 16 or 18
Procedure: The use of vinblastine (VBL) and vincristine (VC) alone and in combination with a protein carrier on the growth of experimental murine tumors grown intracranially was investigated. Halothane-anesthesized C3H mice 12-16 weeks in age were injected intracranially (i.c.) into the right frontal lobe with 10 µl total volume of Hank's balanced salt solution containing 5 X 10⁴ KHT fibrosarcoma cells through a burr hole made in the exposed cranium with a compressed air-driven drill. Following injection, the cranium was sealed with bone wax, and the overlying skin was sutured. Five days post tumor implantation the mice were randomly divided into the following groups based on the treatment solution administered intracranially: saline controls vinblastine (0.2 mg/kg) vinblastine + epinephrine (0.1 mg/kg) vinblastine + matrix (1:1 bovine collagen 36 mg/ml) vinblastine + epinephrine (0.1 mg/kg) + matrix (1:1 bovine collagen 36 mg/ml)
The test solution with and without matrix and the saline control were delivered intracranially (i.c.) in an injection volume of 10 µl through the same burr hole used for tumor cell inoculation. All mice were observed daily.
Surviving mice from each group were sacrificed on day 16 or 18 following tumor implantation. Cross-sections of whole mouse brains were examined histopathologically for the presence of tumor involvement in the brain.

Question: Which “Number of Mice With Varying Tumor Size: NED” value (NED = No evidence of disease, no tumor observed) does the source give for CC[C@]1(O)C[C@@H]2CN(CCc3c([nH]c4ccccc34)[C@@](C(=O)OC)(c3cc4c(cc3OC)N(C)[C@H]3[C@@](O)(C(=O)OC)[C@H](OC(C)=O)[C@]5(CC)C=CCN6CC[C@]43[C@@H]65)C2)C1 [Vinblastine, vinblastine] here?
Answer: The value was 3.

Question: And the “Number of Mice With Varying Tumor Size: Large” value (large tumor = 30% or more of the cross-sectional area of the microscopic field)?
Answer: The value was 2.

Question: And the “%NED” value (share of mice with no evidence of disease)?
Answer: The value was 25%.

Question: And the “Number of Mice With Varying Tumor Size: Small” value (small tumor = 5-30% of the cross-sectional area)?
Answer: Its value is 7.
